# In ChEMBL document CHEMBL1201862, “PubChem BioAssay data set” (2004):
# Protein sequences, listed by entry. Tags and fused reporters are not part of them. Lines headed by an entry give the natural chain unless they say otherwise; changes in a name come on top.
# UniProt Q14974, whole entry, looked up: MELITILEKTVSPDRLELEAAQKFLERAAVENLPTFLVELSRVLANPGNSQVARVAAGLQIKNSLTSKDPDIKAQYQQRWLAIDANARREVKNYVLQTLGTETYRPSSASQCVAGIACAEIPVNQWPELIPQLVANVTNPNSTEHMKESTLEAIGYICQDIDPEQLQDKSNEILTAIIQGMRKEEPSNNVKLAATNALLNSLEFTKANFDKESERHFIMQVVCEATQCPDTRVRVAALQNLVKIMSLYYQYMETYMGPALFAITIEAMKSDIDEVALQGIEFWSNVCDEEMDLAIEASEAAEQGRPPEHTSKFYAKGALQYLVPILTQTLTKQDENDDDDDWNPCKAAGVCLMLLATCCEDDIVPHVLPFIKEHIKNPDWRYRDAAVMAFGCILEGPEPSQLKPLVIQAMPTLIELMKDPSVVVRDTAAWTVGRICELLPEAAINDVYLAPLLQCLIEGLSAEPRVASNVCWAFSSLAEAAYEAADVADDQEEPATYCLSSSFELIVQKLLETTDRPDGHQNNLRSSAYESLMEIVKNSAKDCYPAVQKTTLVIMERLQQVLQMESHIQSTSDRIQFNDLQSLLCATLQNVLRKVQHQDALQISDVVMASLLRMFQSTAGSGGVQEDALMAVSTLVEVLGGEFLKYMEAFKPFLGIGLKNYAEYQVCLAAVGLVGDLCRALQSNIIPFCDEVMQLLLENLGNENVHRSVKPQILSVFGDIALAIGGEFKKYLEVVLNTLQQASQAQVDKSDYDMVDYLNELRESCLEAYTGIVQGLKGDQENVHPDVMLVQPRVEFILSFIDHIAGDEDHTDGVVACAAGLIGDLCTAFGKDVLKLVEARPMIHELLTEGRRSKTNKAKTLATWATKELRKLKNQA
# UniProt O95149, whole entry, looked up: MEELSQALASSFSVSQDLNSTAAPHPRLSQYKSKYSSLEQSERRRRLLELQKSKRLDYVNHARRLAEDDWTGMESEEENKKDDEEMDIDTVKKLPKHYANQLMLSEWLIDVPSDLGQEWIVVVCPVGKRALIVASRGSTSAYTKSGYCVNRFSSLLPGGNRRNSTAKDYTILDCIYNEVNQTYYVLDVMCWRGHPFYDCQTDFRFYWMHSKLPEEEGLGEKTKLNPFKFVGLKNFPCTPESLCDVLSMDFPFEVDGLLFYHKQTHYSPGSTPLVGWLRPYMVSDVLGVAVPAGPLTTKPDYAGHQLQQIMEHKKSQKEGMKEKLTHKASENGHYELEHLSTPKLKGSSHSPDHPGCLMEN
# UniProt O75164: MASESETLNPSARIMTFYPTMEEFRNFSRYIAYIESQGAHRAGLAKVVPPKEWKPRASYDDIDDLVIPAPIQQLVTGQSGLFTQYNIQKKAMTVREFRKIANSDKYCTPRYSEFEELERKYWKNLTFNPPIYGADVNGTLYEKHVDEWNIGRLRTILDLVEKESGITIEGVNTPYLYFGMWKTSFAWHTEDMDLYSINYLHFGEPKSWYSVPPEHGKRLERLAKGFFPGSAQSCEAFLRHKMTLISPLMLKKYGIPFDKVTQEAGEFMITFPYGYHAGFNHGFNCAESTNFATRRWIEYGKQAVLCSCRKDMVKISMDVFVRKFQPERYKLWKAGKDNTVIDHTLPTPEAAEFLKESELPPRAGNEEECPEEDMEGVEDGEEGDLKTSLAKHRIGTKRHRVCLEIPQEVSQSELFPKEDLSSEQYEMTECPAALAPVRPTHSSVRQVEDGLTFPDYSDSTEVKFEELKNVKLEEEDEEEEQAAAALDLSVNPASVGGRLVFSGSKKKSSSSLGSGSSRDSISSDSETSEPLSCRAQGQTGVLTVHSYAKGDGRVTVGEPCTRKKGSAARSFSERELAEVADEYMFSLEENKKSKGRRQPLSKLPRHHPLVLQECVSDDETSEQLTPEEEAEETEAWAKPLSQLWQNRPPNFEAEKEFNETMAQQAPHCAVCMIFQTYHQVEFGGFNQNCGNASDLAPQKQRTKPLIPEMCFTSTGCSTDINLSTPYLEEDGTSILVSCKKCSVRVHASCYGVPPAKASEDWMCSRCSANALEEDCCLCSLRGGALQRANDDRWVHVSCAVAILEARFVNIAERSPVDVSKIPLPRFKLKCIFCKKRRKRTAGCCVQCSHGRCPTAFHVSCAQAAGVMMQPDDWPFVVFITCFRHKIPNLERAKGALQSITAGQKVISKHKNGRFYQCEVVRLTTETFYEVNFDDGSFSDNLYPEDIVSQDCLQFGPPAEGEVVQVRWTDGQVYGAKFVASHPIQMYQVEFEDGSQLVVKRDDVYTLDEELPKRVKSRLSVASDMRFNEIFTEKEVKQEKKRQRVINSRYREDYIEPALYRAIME
# UniProt P83916, whole entry, looked up: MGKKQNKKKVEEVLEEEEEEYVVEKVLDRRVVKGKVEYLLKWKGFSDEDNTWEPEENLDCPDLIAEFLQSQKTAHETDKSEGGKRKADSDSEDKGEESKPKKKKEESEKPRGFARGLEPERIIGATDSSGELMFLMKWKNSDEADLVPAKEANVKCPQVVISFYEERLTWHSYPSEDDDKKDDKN
# UniProt Q9Y253: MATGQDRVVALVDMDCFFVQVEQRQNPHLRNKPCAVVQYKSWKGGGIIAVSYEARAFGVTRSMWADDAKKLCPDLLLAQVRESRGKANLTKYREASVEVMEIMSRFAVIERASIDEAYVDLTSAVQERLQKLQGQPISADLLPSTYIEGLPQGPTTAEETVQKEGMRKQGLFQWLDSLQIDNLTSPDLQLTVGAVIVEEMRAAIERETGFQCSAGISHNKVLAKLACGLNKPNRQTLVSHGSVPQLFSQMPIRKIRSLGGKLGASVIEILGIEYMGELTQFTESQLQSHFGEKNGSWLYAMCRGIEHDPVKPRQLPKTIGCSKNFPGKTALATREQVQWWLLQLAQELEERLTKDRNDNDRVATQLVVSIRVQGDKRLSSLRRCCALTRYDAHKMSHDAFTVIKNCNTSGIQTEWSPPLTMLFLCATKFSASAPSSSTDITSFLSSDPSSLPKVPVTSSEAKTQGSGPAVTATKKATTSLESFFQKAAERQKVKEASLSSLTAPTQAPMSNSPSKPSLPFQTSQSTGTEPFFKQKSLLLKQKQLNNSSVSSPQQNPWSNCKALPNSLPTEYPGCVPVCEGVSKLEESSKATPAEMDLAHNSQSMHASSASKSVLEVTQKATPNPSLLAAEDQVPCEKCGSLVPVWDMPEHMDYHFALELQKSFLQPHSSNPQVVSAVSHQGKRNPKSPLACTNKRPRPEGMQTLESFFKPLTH
# UniProt Q9NUW8, whole entry, looked up: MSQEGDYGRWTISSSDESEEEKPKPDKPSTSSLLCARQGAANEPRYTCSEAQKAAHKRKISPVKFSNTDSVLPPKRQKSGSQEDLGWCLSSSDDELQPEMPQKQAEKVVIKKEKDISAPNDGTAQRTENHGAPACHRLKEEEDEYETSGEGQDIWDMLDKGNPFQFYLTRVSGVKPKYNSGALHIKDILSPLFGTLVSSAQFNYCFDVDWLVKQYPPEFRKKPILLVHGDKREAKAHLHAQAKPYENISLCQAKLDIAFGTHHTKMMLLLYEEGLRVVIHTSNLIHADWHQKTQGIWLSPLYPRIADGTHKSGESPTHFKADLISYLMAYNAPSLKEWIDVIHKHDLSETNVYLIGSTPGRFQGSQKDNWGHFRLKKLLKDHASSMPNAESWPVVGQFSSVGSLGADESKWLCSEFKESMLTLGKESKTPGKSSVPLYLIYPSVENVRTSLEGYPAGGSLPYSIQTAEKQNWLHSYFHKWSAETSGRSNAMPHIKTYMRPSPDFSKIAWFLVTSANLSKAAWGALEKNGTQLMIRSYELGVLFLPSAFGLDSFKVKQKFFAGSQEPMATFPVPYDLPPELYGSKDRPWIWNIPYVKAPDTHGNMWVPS
# UniProt Q03431: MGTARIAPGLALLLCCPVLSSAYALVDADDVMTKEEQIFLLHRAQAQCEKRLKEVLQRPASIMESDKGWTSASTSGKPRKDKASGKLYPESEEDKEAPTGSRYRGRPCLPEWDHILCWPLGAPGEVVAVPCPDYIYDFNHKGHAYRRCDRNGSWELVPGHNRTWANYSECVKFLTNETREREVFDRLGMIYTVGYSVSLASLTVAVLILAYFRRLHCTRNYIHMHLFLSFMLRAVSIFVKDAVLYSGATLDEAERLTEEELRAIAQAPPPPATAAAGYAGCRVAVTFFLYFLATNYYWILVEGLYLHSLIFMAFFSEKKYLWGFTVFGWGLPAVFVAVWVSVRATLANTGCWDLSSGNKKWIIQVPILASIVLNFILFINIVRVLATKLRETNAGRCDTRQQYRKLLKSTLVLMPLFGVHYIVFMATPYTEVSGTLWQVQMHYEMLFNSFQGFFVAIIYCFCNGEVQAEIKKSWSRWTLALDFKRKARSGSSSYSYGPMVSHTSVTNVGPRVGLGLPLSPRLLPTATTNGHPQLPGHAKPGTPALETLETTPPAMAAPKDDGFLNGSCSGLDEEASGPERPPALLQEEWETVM
# UniProt B2RXH2: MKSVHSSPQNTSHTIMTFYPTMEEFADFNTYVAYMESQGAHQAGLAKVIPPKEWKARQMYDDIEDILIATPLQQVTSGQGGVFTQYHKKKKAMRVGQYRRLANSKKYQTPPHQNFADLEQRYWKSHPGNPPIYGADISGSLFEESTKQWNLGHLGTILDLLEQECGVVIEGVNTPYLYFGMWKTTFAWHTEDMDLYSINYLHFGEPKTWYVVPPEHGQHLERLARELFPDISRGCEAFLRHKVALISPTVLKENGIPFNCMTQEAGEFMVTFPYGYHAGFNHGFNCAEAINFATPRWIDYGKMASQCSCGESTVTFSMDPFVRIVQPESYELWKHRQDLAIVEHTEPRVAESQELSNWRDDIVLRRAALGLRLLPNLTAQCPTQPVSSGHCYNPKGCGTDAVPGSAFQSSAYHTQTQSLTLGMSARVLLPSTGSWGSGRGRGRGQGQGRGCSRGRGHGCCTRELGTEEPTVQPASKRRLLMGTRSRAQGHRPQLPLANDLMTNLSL
# UniProt P00352: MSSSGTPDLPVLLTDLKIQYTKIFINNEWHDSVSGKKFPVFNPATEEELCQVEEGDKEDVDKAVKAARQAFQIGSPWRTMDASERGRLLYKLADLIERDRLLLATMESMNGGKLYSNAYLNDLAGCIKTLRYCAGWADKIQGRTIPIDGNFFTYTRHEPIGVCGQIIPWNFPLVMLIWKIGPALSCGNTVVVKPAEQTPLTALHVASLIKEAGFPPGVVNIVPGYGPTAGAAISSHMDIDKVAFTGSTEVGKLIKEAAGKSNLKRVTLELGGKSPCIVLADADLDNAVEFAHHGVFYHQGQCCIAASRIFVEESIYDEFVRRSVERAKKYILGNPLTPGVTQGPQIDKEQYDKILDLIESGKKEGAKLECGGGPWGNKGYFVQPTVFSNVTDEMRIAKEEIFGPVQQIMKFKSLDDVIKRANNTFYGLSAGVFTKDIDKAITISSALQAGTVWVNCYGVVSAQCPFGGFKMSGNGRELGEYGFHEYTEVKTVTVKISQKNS
# UniProt P84022, whole entry, looked up: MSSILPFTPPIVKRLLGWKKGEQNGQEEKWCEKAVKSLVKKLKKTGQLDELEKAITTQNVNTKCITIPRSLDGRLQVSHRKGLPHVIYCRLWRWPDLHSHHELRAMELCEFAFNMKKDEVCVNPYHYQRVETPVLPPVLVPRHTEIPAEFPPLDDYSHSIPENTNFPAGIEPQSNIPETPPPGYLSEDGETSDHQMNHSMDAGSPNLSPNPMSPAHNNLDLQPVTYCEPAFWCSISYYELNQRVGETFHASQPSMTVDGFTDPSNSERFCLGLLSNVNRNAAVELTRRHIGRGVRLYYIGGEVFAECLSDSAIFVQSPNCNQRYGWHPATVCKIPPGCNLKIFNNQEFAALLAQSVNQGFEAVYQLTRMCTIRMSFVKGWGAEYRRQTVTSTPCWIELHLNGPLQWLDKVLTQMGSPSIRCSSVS
# UniProt O75496: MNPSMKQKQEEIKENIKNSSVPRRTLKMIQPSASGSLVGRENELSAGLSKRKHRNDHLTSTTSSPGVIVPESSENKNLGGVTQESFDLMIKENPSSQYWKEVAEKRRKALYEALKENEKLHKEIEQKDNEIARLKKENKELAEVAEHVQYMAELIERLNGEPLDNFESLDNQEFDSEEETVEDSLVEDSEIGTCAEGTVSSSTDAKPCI
# UniProt P11473: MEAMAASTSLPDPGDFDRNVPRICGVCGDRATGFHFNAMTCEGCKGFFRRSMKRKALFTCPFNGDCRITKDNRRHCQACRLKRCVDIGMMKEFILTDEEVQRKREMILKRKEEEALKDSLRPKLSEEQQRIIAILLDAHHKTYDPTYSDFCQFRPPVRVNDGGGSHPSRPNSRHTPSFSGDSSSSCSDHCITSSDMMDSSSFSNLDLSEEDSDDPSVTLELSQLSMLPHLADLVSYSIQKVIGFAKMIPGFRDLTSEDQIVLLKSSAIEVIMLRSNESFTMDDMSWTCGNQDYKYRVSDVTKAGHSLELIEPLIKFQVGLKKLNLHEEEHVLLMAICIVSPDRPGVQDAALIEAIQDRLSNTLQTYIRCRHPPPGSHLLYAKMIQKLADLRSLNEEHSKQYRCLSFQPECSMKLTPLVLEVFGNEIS
# Only a part is listed here, and it is no random draw. Only a part of the results of these assays is listed, not drawn at random. The list shows a part of the results. Active and inactive are the calls of the source. Unless noted, the rule behind the calls is not given here.
# Key:
# Type in all cases: functional
# [1] = target: T1, DNA polymerase iota (Homo sapiens) (UniProt Q9UNA4); assay: qHTS for Inhibitors of Polymerase Iota. [Related pubchem assays (depositor defined):AID588623]
# T1 sequence (whole entry): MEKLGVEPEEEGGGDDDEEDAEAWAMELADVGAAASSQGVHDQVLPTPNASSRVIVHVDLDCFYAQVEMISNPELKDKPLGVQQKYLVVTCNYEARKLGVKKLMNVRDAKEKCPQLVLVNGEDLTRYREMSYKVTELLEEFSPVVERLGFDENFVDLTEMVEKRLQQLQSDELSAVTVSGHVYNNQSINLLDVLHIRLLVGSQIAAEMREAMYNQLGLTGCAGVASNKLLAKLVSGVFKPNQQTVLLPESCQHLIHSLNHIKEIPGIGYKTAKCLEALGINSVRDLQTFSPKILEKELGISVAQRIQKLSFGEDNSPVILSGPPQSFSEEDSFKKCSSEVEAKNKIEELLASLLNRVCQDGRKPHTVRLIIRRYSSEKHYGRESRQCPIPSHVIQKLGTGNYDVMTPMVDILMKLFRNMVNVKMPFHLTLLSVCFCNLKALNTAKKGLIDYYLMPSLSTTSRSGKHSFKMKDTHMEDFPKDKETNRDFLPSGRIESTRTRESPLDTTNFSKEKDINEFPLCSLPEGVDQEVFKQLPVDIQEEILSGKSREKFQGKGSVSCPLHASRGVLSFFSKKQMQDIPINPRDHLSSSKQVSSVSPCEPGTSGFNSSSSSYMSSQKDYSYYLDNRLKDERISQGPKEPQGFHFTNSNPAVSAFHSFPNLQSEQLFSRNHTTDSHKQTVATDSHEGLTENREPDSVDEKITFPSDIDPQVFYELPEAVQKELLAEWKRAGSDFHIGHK
# [2] = target: GTP-binding nuclear protein Ran/Importin subunit beta-1/Snurportin-1 (Homo sapiens) (UniProt P62826+Q14974+O95149); assay: qHTS Assay for Inhibitors of RanGTP induced Rango (Ran-regulated importin-beta cargo) - Importin beta complex dissociation. [Related pubchem assays (depositor defined):AID540262]
# [3] = target: Lysine-specific demethylase 4A (Homo sapiens) (UniProt O75164); assay: qHTS Assay for Inhibitors of JMJD2A-Tudor Domain. [Related pubchem assays (depositor defined):AID504402]
# [4] = target: Chromobox protein homolog 1 (Homo sapiens) (UniProt P83916); assay: HTS for Inhibitors of HP1-beta Chromodomain Interactions with Methylated Histone Tails. [Related pubchem assays (depositor defined):AID488962]
# [5] = target: DNA polymerase kappa (Homo sapiens) (UniProt Q9UBT6); assay: qHTS for Inhibitors of Polymerase Kappa. [Related pubchem assays (depositor defined):AID588638]
# [6] = target: DNA polymerase eta (Homo sapiens) (UniProt Q9Y253); assay: qHTS for Inhibitors of Polymerase Eta. [Related pubchem assays (depositor defined):AID588636]
# [7] = target: Glutaminase kidney isoform, mitochondrial (Homo sapiens) (UniProt O94925); assay: qHTS for Inhibitors of Glutaminase (GLS).
# [8] = target: Menin/Histone-lysine N-methyltransferase MLL (Homo sapiens) (UniProt O00255+Q03164); assay: qHTS Assay for Inhibitors Targeting the Menin-MLL Interaction in MLL Related Leukemias: Competition With Fluorescein Labeled MLL-derived Peptide.
# [9] = target: T2, Thioredoxin reductase 1, cytoplasmic (Rattus norvegicus) (UniProt O89049); assay: qHTS Assay for Inhibitors of Mammalian Selenoprotein Thioredoxin Reductase 1 (TrxR1): qHTS. [Related pubchem assays (depositor defined):AID488771]
# T2 sequence (whole entry): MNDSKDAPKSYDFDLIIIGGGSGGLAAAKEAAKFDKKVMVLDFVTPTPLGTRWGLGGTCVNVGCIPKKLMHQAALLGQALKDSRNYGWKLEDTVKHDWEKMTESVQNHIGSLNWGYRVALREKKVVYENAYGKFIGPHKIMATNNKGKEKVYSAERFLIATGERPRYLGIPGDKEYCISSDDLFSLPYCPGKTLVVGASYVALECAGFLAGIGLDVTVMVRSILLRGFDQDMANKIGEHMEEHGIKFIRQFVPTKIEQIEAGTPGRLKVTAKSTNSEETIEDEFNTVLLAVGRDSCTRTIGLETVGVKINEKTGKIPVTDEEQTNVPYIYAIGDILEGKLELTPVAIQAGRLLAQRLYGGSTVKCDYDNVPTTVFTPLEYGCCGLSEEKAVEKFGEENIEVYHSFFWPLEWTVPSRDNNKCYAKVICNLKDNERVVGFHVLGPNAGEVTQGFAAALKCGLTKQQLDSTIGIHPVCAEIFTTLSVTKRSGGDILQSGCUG
# [10] = target: Guanine nucleotide-binding protein G(s) subunit alpha isoforms short (Homo sapiens) (UniProt P63092); assay: qHTS for Agonist of gsp, the Etiologic Mutation Responsible for Fibrous Dysplasia/McCune-Albright Syndrome: qHTS.
# [11] = target: Tyrosyl-DNA phosphodiesterase 1 (Homo sapiens) (UniProt Q9NUW8); assay: qHTS for Inhibitors of human tyrosyl-DNA phosphodiesterase 1 (TDP1): qHTS in cells in presence of CPT.
# [12] = target: T3, Histone-lysine N-methyltransferase EHMT2 (Homo sapiens) (UniProt Q96KQ7); assay: qHTS Assay for Inhibitors of Histone Lysine Methyltransferase G9a. [Related pubchem assays (depositor defined):AID504404]
# T3 sequence (whole entry): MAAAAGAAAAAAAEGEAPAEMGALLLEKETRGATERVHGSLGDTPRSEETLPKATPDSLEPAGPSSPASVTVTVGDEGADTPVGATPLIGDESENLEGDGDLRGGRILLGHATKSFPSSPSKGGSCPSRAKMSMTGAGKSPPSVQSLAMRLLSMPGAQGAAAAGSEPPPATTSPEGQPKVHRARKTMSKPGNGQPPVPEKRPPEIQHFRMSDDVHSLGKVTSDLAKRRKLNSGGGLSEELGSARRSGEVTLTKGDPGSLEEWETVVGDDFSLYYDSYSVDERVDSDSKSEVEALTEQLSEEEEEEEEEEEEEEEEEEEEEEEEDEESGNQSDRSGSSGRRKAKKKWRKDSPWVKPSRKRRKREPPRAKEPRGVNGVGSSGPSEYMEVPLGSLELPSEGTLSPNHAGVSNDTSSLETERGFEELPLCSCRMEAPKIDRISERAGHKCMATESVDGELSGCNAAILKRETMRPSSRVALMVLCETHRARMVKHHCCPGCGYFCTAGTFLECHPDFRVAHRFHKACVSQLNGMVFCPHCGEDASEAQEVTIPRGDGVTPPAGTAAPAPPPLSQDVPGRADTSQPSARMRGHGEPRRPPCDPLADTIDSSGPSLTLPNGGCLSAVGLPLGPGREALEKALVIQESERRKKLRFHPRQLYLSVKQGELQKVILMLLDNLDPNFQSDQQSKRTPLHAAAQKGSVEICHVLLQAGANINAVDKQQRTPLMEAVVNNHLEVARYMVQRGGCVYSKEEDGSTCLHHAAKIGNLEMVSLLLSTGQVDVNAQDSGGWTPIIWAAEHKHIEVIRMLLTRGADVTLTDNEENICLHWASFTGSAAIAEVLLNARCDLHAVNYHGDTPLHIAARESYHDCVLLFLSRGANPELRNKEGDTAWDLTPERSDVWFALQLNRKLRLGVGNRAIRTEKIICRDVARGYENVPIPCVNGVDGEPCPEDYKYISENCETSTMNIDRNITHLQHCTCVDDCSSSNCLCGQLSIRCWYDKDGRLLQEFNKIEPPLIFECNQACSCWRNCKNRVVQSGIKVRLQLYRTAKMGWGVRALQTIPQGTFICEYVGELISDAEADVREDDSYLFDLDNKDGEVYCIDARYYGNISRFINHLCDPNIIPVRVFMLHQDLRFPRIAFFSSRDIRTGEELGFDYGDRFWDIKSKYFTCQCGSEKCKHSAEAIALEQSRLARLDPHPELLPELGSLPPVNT
# [13] = target: Parathyroid hormone/parathyroid hormone-related peptide receptor (Homo sapiens) (UniProt Q03431); assay: qHTS of PTHR Inhibitors: Primary Screen.
# microRNA 21 = assay: qHTS Assay for Modulators of miRNAs and/or Activators of miR-21.; settings: Homo sapiens
# [14] = target: Lysine-specific demethylase 4E (Homo sapiens) (UniProt B2RXH2); assay: qHTS Assay for Inhibitors of Human Jumonji Domain Containing 2E (JMJD2E).
# [15] = target: T4, Nuclear receptor ROR-gamma (Mus musculus) (UniProt P51450); assay: qHTS for inhibitors of ROR gamma transcriptional activity.
# T4 sequence (whole entry): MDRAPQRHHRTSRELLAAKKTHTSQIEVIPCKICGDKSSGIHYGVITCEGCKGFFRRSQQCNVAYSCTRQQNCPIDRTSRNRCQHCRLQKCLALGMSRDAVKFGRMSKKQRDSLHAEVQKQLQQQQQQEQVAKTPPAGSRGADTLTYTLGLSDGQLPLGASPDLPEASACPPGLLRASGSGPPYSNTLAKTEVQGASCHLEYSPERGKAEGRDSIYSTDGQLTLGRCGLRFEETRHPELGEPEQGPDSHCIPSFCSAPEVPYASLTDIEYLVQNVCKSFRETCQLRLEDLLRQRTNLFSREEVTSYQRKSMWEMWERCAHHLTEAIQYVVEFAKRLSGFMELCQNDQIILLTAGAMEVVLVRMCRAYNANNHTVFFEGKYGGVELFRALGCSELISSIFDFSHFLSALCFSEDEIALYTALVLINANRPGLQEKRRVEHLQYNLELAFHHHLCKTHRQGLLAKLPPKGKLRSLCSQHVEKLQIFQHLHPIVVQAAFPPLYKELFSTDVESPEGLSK
# [16] = target: Nuclear receptor ROR-gamma (Mus musculus) (UniProt P51450); assay: VP16 counterscreen qHTS for inhibitors of ROR gamma transcriptional activity.
# [17] = target: Aldehyde dehydrogenase 1A1 (Homo sapiens) (UniProt P00352); assay: qHTS Assay for Inhibitors of Aldehyde Dehydrogenase 1 (ALDH1A1). [Related pubchem assays: 1030 (qHTS Validation Assay for Inhibitors of aldehyde dehydrogenase 1 (ALDH1A1))]
# HepG2 = assay: qHTS for Inhibitors of TGF-b: Cytotox Counterscreen. [Related pubchem assays (depositor defined):AID588855, AID588860]; settings: Homo sapiens
# [18] = target: Mothers against decapentaplegic homolog 3 (Homo sapiens) (UniProt P84022); assay: qHTS for Inhibitors of TGF-b. [Related pubchem assays (depositor defined):AID588856, AID588860]
# [19] = target: Glucagon-like peptide 1 receptor (Homo sapiens) (UniProt P43220); assay: qHTS of GLP-1 Receptor Inverse Agonists (Inhibition Mode).
# Geminin (Homo sapiens) = Geminin (Homo sapiens) (UniProt O75496); assay: A quantitative high throughput screen for small molecules that induce DNA re-replication in MCF 10a normal breast cells.
# [20] = target: Tyrosyl-DNA phosphodiesterase 1 (Homo sapiens) (UniProt Q9NUW8); assay: qHTS for Inhibitors of human tyrosyl-DNA phosphodiesterase 1 (TDP1): qHTS in cells in absence of CPT.
# [21] = target: Vitamin D3 receptor (Homo sapiens) (UniProt P11473); assay: Inhibitors of the vitamin D receptor (VDR): qHTS. [Related pubchem assays (depositor defined):AID504855]
smiles,measurement,setting,value
O=Cc1ccc(N(CCCl)CCCl)cc1,Potency,[1],inactive
O=[N+]([O-])c1ccc(-c2cc([N+](=O)[O-])c(O)c([N+](=O)[O-])c2)cc1,Potency,[2],inactive
NC(=O)c1cc([N+](=O)[O-])cc([N+](=O)[O-])c1N,Potency,[2],inactive
O=C1C(O)=C([N+](=O)[O-])C(=O)C(O)=C1[N+](=O)[O-],Potency,[3],active: 10 µM
same,Potency,[4],active: 25.1 µM
same,Potency,[5],active: 50.1 µM
same,Potency,[6],active: 3.98 µM
same,Potency,[7],active: 5.01 µM
O=[N+]([O-])c1ccc(Nc2ccc(Oc3ccc([N+](=O)[O-])cc3[N+](=O)[O-])cc2)c([N+](=O)[O-])c1,Potency,[8],inactive
Cn1c(=O)[nH]cc(N(CCCl)CCCl)c1=O,Potency,[4],inactive
same,Potency,[9],active: 35.5 µM
same,Potency,[10],inactive
same,Potency,[11],active: 0.461 µM
O=[N+]([O-])c1cc([N+](=O)[O-])c(OC2CCCCC2O)c([N+](=O)[O-])c1 (stereo not drawn),Potency,[12],active: 44.7 µM
same,Potency,[13],inactive
Nc1cccc2c([As](=O)(O)O)cccc12,Potency,[2],inactive
CCOC(=O)c1ccc(NC(=O)C(C)(CCl)SC)cc1 (stereo not drawn),Potency,microRNA 21,inactive
CN(C(=O)Cc1ccc(Cl)c(Cl)c1)C1CCCCC1N1CCCC1 (stereo not drawn),Potency,[2],inactive
O=[N+]([O-])c1cc([N+](=O)[O-])c(NCC2CCS(=O)(=O)C2)c([N+](=O)[O-])c1 (stereo not drawn),Potency,[14],active: 31.6 µM
same,Potency,[15],active: 2 µM
same,Potency,[16],active: 4.47 µM
same,Potency,[17],active: 7.08 µM
same,Potency,HepG2,active: 17.8 µM
same,Potency,[18],active: 11.2 µM
same,Potency,[19],inactive
same,Potency,Geminin (Homo sapiens),active: 9.2 µM
same,Potency,[20],active: 5.8 µM
same,Potency,[11],active: 2.91 µM
O=P1(N(CCCl)CCCl)OCCCS1 (stereo not drawn),Potency,[21],inactive
O=C(O)c1cccc(Nc2c([N+](=O)[O-])cc([N+](=O)[O-])cc2[N+](=O)[O-])c1,Potency,[4],inactive
same,Potency,[9],active: 10 µM
O=P(Nc1nccs1)(c1ccccc1)c1ccccc1,Potency,[2],inactive
O=[N+]([O-])c1ccc2nc3c([N+](=O)[O-])cc([N+](=O)[O-])cc3c(O)c2c1,Potency,[2],inactive
